Tests used:
[1] = Oral bioavailability in rats (Example 11); details: Sprague-Dawley rats, approx. 10 mg/kg p.o. vs i.v., 5% glucose solution, plasma 0-4 hours
[2] = Subcutaneous bioavailability in rats (Example 12); details: Sprague-Dawley rats, approx. 10 mg/kg s.c. vs i.v., 5% glucose solution, plasma 0-4 hours

Molecule | oral bioavailability (AUC[p.o. adm]/AUC[i.v. adm.])×100% [1] [%] | subcutaneous bioavailability (AUC[s.c. adm]/AUC[i.v. adm.])×100% [2] [%]
Cc1cn(CC(=O)N(CCNC(=O)CN(CCNC(=O)CN(CCNC(=O)CN(CCNC(=O)CN(CCNC(=O)CN(CCNC(=O)CN(CCNC(=O)CN(CCNC(=O)CN(CCNC(=O)CN(CCNC(=O)CN(CCNC(=O)CN(CCNC(=O)COCCOCCNC(=O)[C@H](CCCCN)NC(=O)[C@H](Cc2ccccc2)NC(=O)[C@H](Cc2ccccc2)NC(=O)[C@H](CCCCN)NC(=O)[C@H](Cc2ccccc2)NC(=O)[C@H](Cc2ccccc2)NC(=O)[C@H](CCCCN)NC(=O)[C@H](Cc2ccccc2)NC(=O)[C@H](Cc2ccccc2)NC(=O)[C@@H](N)CCCCN)C(=O)Cn2cc(C)c(=O)[nH]c2=O)C(=O)Cn2cc(C)c(=O)[nH]c2=O)C(=O)Cn2ccc(N)nc2=O)C(=O)Cn2cnc3c(N)ncnc32)C(=O)Cn2cnc3c(N)ncnc32)C(=O)Cn2cnc3c(N)ncnc32)C(=O)Cn2ccc(N)nc2=O)C(=O)Cn2cnc3c(N)ncnc32)C(=O)Cn2cc(C)c(=O)[nH]c2=O)C(=O)Cn2cnc3c(N)ncnc32)C(=O)Cn2cnc3c(=O)[nH]c(N)nc32)CC(N)=O)c(=O)[nH]c1=O | 14 | 105
H2N-KFFKVKFVVKK-C-smcc-ado-TTC AAA CAT AGT-NH2 | 15 | 84
H-KFFKFFKFFK-C-smcc-ado-TTC AAA CAT AGT-NH2 | 15 | –

— patent US20040072743A1 (priority 2000, published 2004)
